Test results: patent publication US12133841B2, “Heterocyclic compounds as kinase inhibitors, compositions comprising the heterocyclic compound, and methods of use thereof” (JS INNOMED HOLDINGS LTD., priority 2018, dated 2024)

Chains of the proteins cited; added tags and fusions are not shown.
UniProt P28482, whole entry: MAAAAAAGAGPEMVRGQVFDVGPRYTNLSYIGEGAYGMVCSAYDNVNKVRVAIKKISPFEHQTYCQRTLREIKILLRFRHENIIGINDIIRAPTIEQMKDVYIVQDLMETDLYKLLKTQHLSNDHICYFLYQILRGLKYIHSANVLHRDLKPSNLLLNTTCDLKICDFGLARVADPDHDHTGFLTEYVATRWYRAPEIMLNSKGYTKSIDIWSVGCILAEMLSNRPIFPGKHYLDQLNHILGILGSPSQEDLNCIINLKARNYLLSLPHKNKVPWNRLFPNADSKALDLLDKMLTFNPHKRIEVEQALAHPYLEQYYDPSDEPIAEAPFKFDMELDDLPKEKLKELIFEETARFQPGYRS

Columns and labels:
human ERK2 = human ERK2 (Homo sapiens, UniProt P28482); assay: LanthaScreen TR-FRET ERK2 enzymatic assay; settings: read-out: ERK2 Biochemical Activity (IC50 of ERK2 inhibition); 5 μM ATP, one hour reaction
Protocol: Compounds were tested in a LanthaScreen™ time-resolved fluorescence energy transfer (TR-FRET) enzymatic assay from Invitrogen. The assay used human ERK2 (Mitogen Activated Kinase 1, Invitrogen, Cat. PV3311) recombinantly expressed as GST-tagged full-length protein purified from E. coli and activated in vitro with MAP2K1. The substrate was a recombinant truncated version (residues 19-96) of ATF2 fused with Green Fluorescent Protein (Invitrogen, Cat. PV4445). Test compounds were prepared and diluted in DMSO in 3-fold serial dilutions to 100× of the final testing concentrations. The compounds were then further diluted to 4× by the kinase reaction buffer (Invitrogen, Cat. PV3189). […] After 30 minutes of incubation at room temperature, the plate was read in Tecan Infinite F200 Pro with the following settings: Excitation 340 nm (30)/Emission1 495 nm (10)/Emission2 520 nm (25). The TR-FRET values were dimensionless numbers that were calculated as the ratio of the acceptor ([…]) signal to the donor (Terbium) signal. Percent of control was calculated as the percentage of compound-treated vs 1% DMSO vehicle-treated. The dose-response curves were generated and the IC50s were calculated by nonlinear sigmoid curve fitting using GraphPad Prism. […]

Colo205 cell line = assay: Colo205 cell proliferation assay (MTT assay, WST-8); settings: read-out: Colo 205 Cell Activity (IC50 of growth inhibition in Colo 205 cells); 72 hours incubation
Protocol: Compounds disclosed herein were tested for the inhibition of ERK2 by a Colo205 cell proliferation assay commonly known as MTT assay. In this assay, a complete media was prepared by adding 10% fetal bovine serum to RPMI-1640 medium (Life technology). Colon cancer cells (Colo205 cell line) were added to each of 88 wells of a 96 well plate at a seeding density of 5,000 cells/well/90 μL. The cells were allowed to attach to the plate by incubating at 37° C. for 24 hours. The compound was dissolved in DMSO (SIGMA). A solution of test compound was prepared in complete media by serial dilution to obtain the following concentrations: 500 μM, 150 μM, 50 μM, 15 μM, 5 μM, 1.5 μM, 0.5 μM, 0.15 μM and 0.05 μM. The test compound solution (10 μL) was added to each of 80 cell-containing wells. The final concentrations of the compound were following: 50 μM, 15 μM, 5 μM, 1.5 μM, 0.5 μM, 0.15 μM, 0.05 μM, 0.015 μM and 0.005 μM. The final concentration of DMSO is 0.5%. To the 8 remaining cell-containing wells, only complete media (containing 0.5% DMSO) was added to form a control group in order to measure maximal proliferation. To the remaining 8 empty wells, complete media was added to for a vehicle control group in order to measure background. […] The plates were further incubated at 37° C. for 2 hours, and then read for the absorbance using a microplate reader at 450 nm. […]

CC(c1ccnc(C(F)(F)F)c1)N1C(=O)c2cc(-c3ccnc(Nc4ccnn4C)n3)sc2C1(C)C (racemic) [Example 9, 6,6-dimethyl-2-(2-(1-methyl-1H-pyrazol-5-ylamino)pyrimidin-4-yl)-5-(1-(2-(trifluoromethyl)pyridin-4-yl)ethyl)-5,6-dihydro-4H-thieno[2,3-c]pyrrol-4-one]
IC50 (human ERK2): < 10 nM | IC50 (Colo205 cell line): < 500 nM
